{
  "source": "patent US20060251664A1",
  "about": "“Method for the identification of epitopes related to immunogenicity in biopharmaceuticals” (priority 2005, published 2006)",
  "origin": "cited, not measured here",
  "settings": "after treatment (Deisenhammer et al., 2000; Bertolotto et al., 2004); cited from earlier work",
  "data": [
    {"substance": "Avonex: marketed IFN-β-1a, glycosylated, expressed in Chinese hamster ovary cells [reference compound]", "values": [
      {"measurement": "patients producing anti-IFN-β neutralizing antibodies", "value": "2-6%"}
    ]}
  ]
}
